TCR activator – activators of T cell receptors; primary human leukocytes, anti-CD3, IL-2 HTRF, 48 h; 330,000 tested, under 10 active; Potency, µM (doses to about 9.22 µM), hits mostly activators
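Compounds are tested in HTS on primary human leukocytes co-incubated with a-CD3 beads for 48 hr. IL-2 output is measured by time-resolved FRET.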
miR-21 reporter – miR-21 reporter, rising signal; HeLa miR-21 FLuc reporter, luciferase, 48 h; Potency, µM (titrated, usually from 38.3 µM); 340,000 tested, under 10 active; AID 2288; active = well fitted rising curve with a large enough effect; inconclusive = small, poorly fitted or top-dose-only effect; inactive = no such curve, though single readings can be large or run the other way;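 also: miR-21 action dims this reporter so a rising signal means less miR-21 action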
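HeLa cells endogenously expressing miR-21, stably carrying CMV-driven firefly luciferase with a downstream miR-21 binding site, 2000 cells/well. Titrations up to approximately 40 uM, 48 hours; luciferase luminescence read.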
Nrf2 activator – Nrf2 pathway activation. AREc32 ARE-luciferase reporter (MCF7-derived line), luminescence, 24 h. Potency, µM (top dose mostly 46.1 µM), most hits filed as activators. 0.31% of 410,000 active. AID 624171; note: nearly all actives have a fitted effect of over 65% in size
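For detection, Steady-Glo was added and plates sat 30 min at RT; before that, AREc32_Fluc cells grown overnight in OPTI-MEM/5% FBS had been treated with 23 nL compound for 24 hr at 37 deg C.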
A549 tox – counter-screen for Nrf2 inhibitors: cytotoxicity in A549 cells. A549 ARE-Fluc cells, CellTiter-Fluor viability, 18-24 h. 0.16% of 390,000 active. AID 504648. Potency, µM (titrated, usually from 46 µM), usual class: inhibitors
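Cytotoxicity counterscreen: CellTiter-Fluor fluorescence was measured in A549 ARE_Fluc cells after 18-24 h of compound exposure in a concentration series. The subsequent BugLite luminescent read reports ARE-luciferase activity.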
ClpP mod – qHTS Assay for Activators of ClpP | AID 651965, 2013 | 1.9% of 340,000 active | purified B. subtilis ClpP, FRET peptide cleavage, 20 min | Potency, µM (highest dose often 57.5 µM) | ATP-dependent Clp protease proteolytic subunit (Bacillus subtilis (strain 168)), P80244; active = well fitted falling curve with a large enough effect; inconclusive = small, poorly fitted or top-dose-only effect; inactive = no such curve, though single readings can be large or run the other way; note: the source files actives as falling curves though it sought activators and does not explain the sign; nearly all actives have a fitted effect of over 65% in size
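Purified B. subtilis ClpP, 10 microg/mL final in Tris/HCl pH8 with KCl, BSA, glycerol and Tween-20, cleaved an Abz/nitrotyrosine-quenched decapeptide. Fluorescence (ex 320, em 430) was read at 0 and 20 min at room temperature. Delta was normalized to 5.8 microM ADEP and DMSO/no-enzyme controls.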
Nrf2 inh – Nrf2 pathway inhibition; A549 ARE-Fluc reporter, luciferase luminescence, 18-24 h; Potency, µM (titrated, usually from 46 µM), actives largely listed as inhibitors; 2.1% of 360,000 active; AID 504444; note: nearly all actives have a fitted effect of over 60% in size
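Nrf2 function is reported as luminescence of an ARE-controlled luciferase in A549 cells. Compounds were tested at several concentrations, and a CellTiter-Fluor read on the same wells flagged cytotoxicity.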
Hits are given with their value; [ ] = dose if it differs, or a comment. Most compounds without a hit are left out; they make up all but 3.7% or so of the library. Unless noted, calls come from the whole dose curve; as a rule, active = well fitted curve in the direction sought with a large enough effect; inconclusive = small, poorly fitted or top-dose-only effect, or another doubt; inactive = no such curve, though single readings can be large; an effect the other way counts as inactive or inconclusive.

Screening Cc1nn(C)c2c1c(-c1ccccc1)cc(=O)n2Cc1ccccc1Cl returned miR-21 reporter inactive, Nrf2 activator inactive, A549 tox inactive, ClpP mod 28.2µM and Nrf2 inh inactive.
Cc1nn(C)c2c1c(-c1ccccc1)cc(=O)n2Cc1ccc(Br)cc1F was read as miR-21 reporter inactive, Nrf2 activator inactive, A549 tox inactive, ClpP mod inactive and Nrf2 inh inconclusive.
Screening Cc1nn(C)c2c1c(-c1ccccc1)cc(=O)n2Cc1ccccc1F returned miR-21 reporter inactive, Nrf2 activator inactive, A549 tox inactive, ClpP mod 28.2µM and Nrf2 inh inactive.
Screening Cc1cc(C)nc(SCC(=O)NNS(=O)(=O)c2ccc(C#N)cc2)n1 returned TCR activator inactive, Nrf2 activator inactive, A549 tox inactive, ClpP mod inactive and Nrf2 inh inactive.
Cn1c(O)c(N=NC(=O)Cc2c[nH]c3ccccc23)c2ccccc21 was read as TCR activator inactive, Nrf2 activator inactive, A549 tox inactive, ClpP mod 3.16µM and Nrf2 inh inactive.
Screening CCN1CCc2c(sc(NC(=O)c3ccc(S(=O)(=O)N(CC)c4ccccc4)cc3)c2C(N)=O)C1 returned miR-21 reporter inactive, Nrf2 activator inactive, A549 tox 23.1µM, ClpP mod inactive and Nrf2 inh 16.4µM.
For Cc1cc(Cl)ccc1NC(=O)CSc1nc2c(c(=O)[nH]1)CCC2 the results were miR-21 reporter inactive, Nrf2 activator inactive, A549 tox inactive, ClpP mod inactive and Nrf2 inh inconclusive.
For CN(C)c1ccc(-c2noc(C3CCN(S(=O)(=O)c4cccc(Cl)c4)CC3)n2)cc1 the results were TCR activator inactive, miR-21 reporter inactive, Nrf2 activator inactive, A549 tox inactive and ClpP mod 20µM.
`Cc1cc(C)cc(-n2ccn(CC(=O)c3ccc(F)cc3)c(=O)c2=O)c1` gave miR-21 reporter inactive, Nrf2 activator inactive, A549 tox inactive, ClpP mod inactive and Nrf2 inh inconclusive.
For Cc1cc(C)cc(-n2ccn(Cc3ccc(F)cc3)c(=O)c2=O)c1 the results were miR-21 reporter inconclusive, Nrf2 activator inactive, A549 tox inactive, ClpP mod inactive and Nrf2 inh 23.1µM.
Screening CC(C)N(C(=O)[C@H]1C[C@H](CC(=O)NCc2ccco2)C(=O)N2CCc3c([nH]c4cc(-c5ccco5)ccc34)[C@]12C)C(C)C returned TCR activator inactive, Nrf2 activator inactive, A549 tox inactive, ClpP mod inactive and Nrf2 inh 14.6µM.
`C[C@]12c3[nH]c4cc(-c5ccco5)ccc4c3CCN1C(=O)[C@@H](CC(=O)NCC13CC4CC(CC(C4)C1)C3)C[C@@H]2C(=O)N1CCOCC1` gave TCR activator inactive, Nrf2 activator inactive, A549 tox inconclusive, ClpP mod inactive and Nrf2 inh 23.1µM.
Screening CC(C)=CCC/C(C)=C/CNC(=O)C[C@H]1C[C@H](C(=O)N(C(C)C)C(C)C)[C@@]2(C)c3[nH]c4cc(CCC(=O)N(C)C)ccc4c3CCN2C1=O returned TCR activator inactive, Nrf2 activator inactive, A549 tox inactive, ClpP mod inactive and Nrf2 inh 20.6µM.
`CC(C)=CCC/C(C)=C/CNC(=O)C[C@H]1C[C@H](C(=O)N(C(C)C)C(C)C)[C@@]2(C)c3[nH]c4cc(-c5ccco5)ccc4c3CCN2C1=O` gave TCR activator inactive, Nrf2 activator inactive, A549 tox inconclusive, ClpP mod inactive and Nrf2 inh 23.1µM.
`Cc1ccc(C(=O)N2CCCC(N(C)Cc3ccccc3)C2)s1` (configuration not stated) gave TCR activator inactive, miR-21 reporter inactive, Nrf2 activator inactive, A549 tox inactive, ClpP mod 22.4µM and Nrf2 inh inactive.
`CCN1C(=NCc2cccc(Cl)c2)N[C@@H](c2cccc(C(F)(F)F)c2)C(C(=O)OC)=C1C` gave ClpP mod inactive.
`COc1cc(C2C=C(C34CC5CC(CC(C5)C3)C4)NC(=S)N2)cc(OC)c1OC` (configuration not stated) gave TCR activator inactive, miR-21 reporter inactive, Nrf2 activator inactive, A549 tox inactive, ClpP mod inactive and Nrf2 inh 23.1µM.
For O=C(CSc1nnc2scc(-c3ccccc3)n12)Nc1nsc(-c2ccccc2)n1 the results were TCR activator inactive, miR-21 reporter inactive, Nrf2 activator inactive, A549 tox inactive, ClpP mod inactive and Nrf2 inh 16.4µM.
Cc1ccc(-c2csc3nnc(SCC(=O)Nc4nsc(-c5ccccc5)n4)n23)cc1 was read as miR-21 reporter inactive, Nrf2 activator inactive, A549 tox inactive[1.84 µM], ClpP mod inactive and Nrf2 inh 20.6µM.
Screening Cc1cccc(C)c1NC(=O)CNC(=O)c1cccc(S(=O)(=O)NCc2cccs2)c1 returned TCR activator inactive, Nrf2 activator inactive, A549 tox inactive, ClpP mod inactive and Nrf2 inh inactive.
For CCCCCc1ccc(OCCC[n+]2ccccc2)c(CCCCC)c1 the results were TCR activator inactive, miR-21 reporter inconclusive, Nrf2 activator inactive, A549 tox inconclusive, ClpP mod inactive and Nrf2 inh 13µM.
Screening CC(=O)Nc1ccc(OCCC[n+]2ccccc2)cc1 returned TCR activator inactive, miR-21 reporter inactive, Nrf2 activator inactive, A549 tox inactive, ClpP mod inactive and Nrf2 inh inactive.
Screening CC(C)Nc1nc(Cl)nc(NCCOc2ccccc2)n1 returned TCR activator inactive, miR-21 reporter inactive, Nrf2 activator inactive, A549 tox inactive and Nrf2 inh inconclusive.
For CCC(C)Nc1nc(Cl)nc(NCCOc2ccccc2)n1 (configuration not stated) the results were TCR activator inactive, miR-21 reporter inactive, Nrf2 activator inactive, A549 tox inactive, ClpP mod 28.2µM and Nrf2 inh inactive.
CCCOC(=O)/C(=C\C=C\c1ccco1)NC(=O)c1ccccc1 was read as TCR activator inactive, miR-21 reporter inactive, Nrf2 activator 12.6µM, A549 tox inactive and Nrf2 inh inconclusive.
Screening CCN(CC)c1ccc(C=C2SC(=S)NC2=O)cc1 returned TCR activator inactive, Nrf2 activator inactive, A549 tox inconclusive, ClpP mod inactive and Nrf2 inh inactive.
`O=C1NC(=Nc2ccccc2Cl)S/C1=C\c1cccc([N+](=O)[O-])c1` gave TCR activator inactive, miR-21 reporter inactive, Nrf2 activator inconclusive, A549 tox inactive and Nrf2 inh inactive.
Screening CC1Cc2cc(/C=C3/SC(=S)NC3=O)ccc2O1 (configuration not stated) returned TCR activator inactive, miR-21 reporter inactive, Nrf2 activator inactive, A549 tox 13µM and Nrf2 inh inconclusive.

Compound activity as filed in PubChem.
